Tests used:
[1] = Hepatocyte metabolic stability experiment (HMS), C; conditions: C hepatocytes, 1 μM
Procedure: (§1) Experimental operations: 198 μL of hepatocyte suspension (0.51×10^6 cells/mL) was added to the preheated incubation plate, and 198 μL of culture medium without hepatocytes was added to T0-MC and T120-MC incubation plates for the culture medium control group, and all incubation plates were pre-incubated for 10 minutes in a 37° C. incubator. Then 2 μL of the working solution of the test and control compounds were added and mixed well, and the incubation plate was immediately put into the plate shaker in the incubator, the rotation speed was adjusted to about 650 rpm, and the timer and the reaction were started. 2 duplicate samples for each compound were prepared at each time point. Incubation conditions: 37° C., saturated humidity, and containing 5% CO2. In the test system, the final concentration of the test compound was 1 μM, the final concentration of the control compound was 3 μM, the final concentration of hepatocytes was 0.5×10^6 cells/mL, and the final concentration of the total organic solvent was 0.96%, of which the final concentration of DMSO was 0.1%. […] All samples were mixed and analyzed by LC-MS/MS method. […]

Sequences of proteins named here, by UniProt entry; tags and fusion partners are left off.
UniProt P05177, whole entry: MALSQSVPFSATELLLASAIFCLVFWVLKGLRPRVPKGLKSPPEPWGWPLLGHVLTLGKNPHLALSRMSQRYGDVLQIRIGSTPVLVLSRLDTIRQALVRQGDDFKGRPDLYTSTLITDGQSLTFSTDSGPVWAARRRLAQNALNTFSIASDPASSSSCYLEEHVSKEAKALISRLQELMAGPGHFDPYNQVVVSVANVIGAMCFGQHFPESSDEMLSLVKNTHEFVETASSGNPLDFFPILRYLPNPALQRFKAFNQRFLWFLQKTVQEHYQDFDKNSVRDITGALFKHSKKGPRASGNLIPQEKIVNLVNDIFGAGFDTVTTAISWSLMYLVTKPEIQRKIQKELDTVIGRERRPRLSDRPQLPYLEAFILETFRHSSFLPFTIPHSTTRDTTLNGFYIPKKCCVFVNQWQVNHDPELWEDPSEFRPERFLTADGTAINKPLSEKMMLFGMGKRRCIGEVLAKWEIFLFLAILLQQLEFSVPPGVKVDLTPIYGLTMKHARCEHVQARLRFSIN

plasma proteins = test: Plasma protein binding experiment (PPB), R; conditions: 2 μM, 4 hours dialysis
Procedure: Experimental operation: 995 μL of blank plasma of each genus was taken, 5 μL of working solution of test compound (400 μM) or working solution of warfarin (400 μM) was added, so that the final concentrations of the test compound and warfarin in the plasma sample was 2 μM. The sample was mixed thoroughly. The final concentration of the organic phase DMSO was 0.5%; 50 μL of plasma samples of the test compound and warfarin were pipetted into the sample receiving plate (three parallels), and the corresponding volume of the corresponding blank plasma or buffer was immediately added so that the final volume of each sample well was 100 μL, with a volume ratio of 1:1 for plasma: dialysis buffer, and then 500 μL of stop solution was added to these samples, and these samples would be used as a T0 sample for the recovery and stability determination. […] All samples were analyzed by LC/MS/MS after protein precipitation, and the protein binding rate and recovery rate were calculated by the formula: % Unbound=100*F/T, % Bound=100−% Unbound, % Recovery 100*(F+T) T0 (where F was the peak area ratio of the compound in the dialysate after 4 hours of dialysis; T was the peak area ratio of the compound in the plasma after 4 hours of dialysis, and T0 was the peak area ratio of the compound in the plasma sample at zero time).

[2] = Hepatocyte metabolic stability experiment (HMS), M; conditions: M hepatocytes, 1 μM
Procedure: as §1

CYP1A2 = CYP1A2 (Homo sapiens (Human), UniProt P05177)
[3] = Hepatocyte metabolic stability experiment (HMS), D; conditions: D hepatocytes, 1 μM
Procedure: as §1

Q: With Nc1nccc2c1n(-c1ccc(Oc3ccccc3)cc1)c(=O)n2C1CCN(C(=O)/C=C/CF)C1 (single isomer, unassigned) [Compound 003B] as the molecule, how does the “HMS CLint(liver)” value [1] read?
A: The value was 73 mL/min/kg.

Q: And the “Unbound PPB” value (plasma proteins)?
A: Its value is 5.7%.

Q: And the “HMS CLint(liver)” value [2]?
A: The value was 2766 mL/min/kg.

Q: And the IC50 (CYP1A2)?
A: Its IC50 is > 50 µM.

Q: And the “HMS CLint(liver)” value [3]?
A: The value was < 44 mL/min/kg.
